# Binding of CDR-mutated scFvs to a peptide of the spike HR2 region

Data: MIT Lincoln Laboratory AlphaSeq set, Engelhart et al. 2022, doi:10.1038/s41597-022-01779-4, as distributed in FLAb.

Antigen: PDVDLGDISGINAS, a 14-residue peptide of the SARS-CoV-2 spike HR2 region.

The variants keep the light chain, the linker and the frameworks of Ab-14 (scFv order VH, a (GGGGS)3 linker, VL).
VH: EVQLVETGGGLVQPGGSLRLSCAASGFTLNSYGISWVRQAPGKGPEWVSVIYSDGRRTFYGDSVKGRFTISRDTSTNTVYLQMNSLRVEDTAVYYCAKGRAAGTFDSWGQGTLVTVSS
VL: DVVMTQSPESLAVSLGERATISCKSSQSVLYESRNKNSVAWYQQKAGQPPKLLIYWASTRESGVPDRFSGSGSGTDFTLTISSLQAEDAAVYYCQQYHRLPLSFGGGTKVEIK

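Phage display of a naive human antibody library on the peptide gave the parent. The library (AAYL49) carries one to three amino acid substitutions per variant, with no insertions or deletions. AlphaSeq pools MATa yeast showing the antibodies with MATalpha yeast showing the peptide. Pairs that bind mate more often; barcode pairs of the diploids are counted by sequencing. The ratio of observed to expected reads was calibrated, replicate by replicate, on BCL2-family standards whose Kd was known from biolayer interferometry. There are three technical replicates.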

Changes read parent residue, position, new residue, counted from the first residue of the VH shown. This list gathers variants with a substitution at Y52 (VH, numbered from residue 1). Values are log10 of the apparent Kd in nM; lower means stronger binding. The mean shown is taken over the replicates in which the pair was detected. "nd" marks a missing value. The strain was present, yet no cells mated with the target were sequenced in any replicate, which points to weak or no binding. Background: pairings of library AAYL49 with three empty control strains gave a value in 15% of cases (median 4.06, 5th percentile 2.83). Values in that range, when seen in few replicates, are hard to tell from nonspecific mating. Also given: how often the same scFv was detected with the empty control strains.

* Y52E G55Y T104N: 3.53 (1 of 3 replicates; controls 1 of 9)
* Y52Q Y60H V64T: 4.21 (2 of 3 replicates; controls 5 of 9)
* Y52W D54G A102Y: nd (0 of 3 replicates; controls 0 of 9)
* N30R Y52F: 2.07 (3 of 3 replicates; controls 1 of 9)
* Y52L D54R Y60D: 3.38 (1 of 3 replicates; controls 2 of 9)
* Y52H D106Y: 2.71 (1 of 3 replicates; controls 0 of 9)
* S35C Y52E: 5.81 (1 of 3 replicates; controls 1 of 9)
* S35L Y52S D54H: 4.17 (3 of 3 replicates; controls 4 of 9)
* Y52R R57M A102F: nd (0 of 3 replicates; controls 1 of 9)
* S31V Y52P K65Y: 3.97 (1 of 3 replicates; controls 5 of 9)
* Y52P G55V G61F: nd (0 of 3 replicates; controls 0 of 9)
* I51K Y52V G99Y: nd (0 of 3 replicates; controls 0 of 9)
* S31L Y52A G103M: 5.35 (1 of 3 replicates; controls 1 of 9)
* Y52S D54K G103C: 3.91 (2 of 3 replicates; controls 2 of 9)
* Y52S T58C R100T: 4.12 (1 of 3 replicates; controls 1 of 9)
* Y52W R56Q G103S: nd (0 of 3 replicates; controls 1 of 9)
* L29E Y52G R56I: 3.70 (2 of 3 replicates; controls 3 of 9)
* N30F Y52V Y60F: nd (0 of 3 replicates; controls 0 of 9)
* F27E Y52T D106Q: 0.74 (3 of 3 replicates; controls 3 of 9)
* Y32D Y52W T104N: nd (0 of 3 replicates; controls 0 of 9)
* Y52N S63E: nd (0 of 3 replicates; controls 0 of 9)
* S31C Y52R A102D: 5.99 (1 of 3 replicates; controls 1 of 9)
* Y52I S53D F105D: nd (0 of 3 replicates; controls 1 of 9)
* S31Y G33M Y52S: nd (0 of 3 replicates; controls 0 of 9)
* Y52F G55F K65T: 3.52 (1 of 3 replicates; controls 0 of 9)
* Y32S Y52S S53W: 5.13 (1 of 3 replicates; controls 5 of 9)
* F27S T28I Y52R: nd (0 of 3 replicates; controls 0 of 9)
* Y52C Y60K: nd (0 of 3 replicates; controls 3 of 9)
* S35K Y52Q A101R: nd (0 of 3 replicates; controls 0 of 9)
* Y52F G61K: 1.31 (3 of 3 replicates; controls 4 of 9)
* I51S Y52V G99E: nd (0 of 3 replicates; controls 1 of 9)
* Y52M R100E F105M: 4.38 (1 of 3 replicates; controls 1 of 9)
* V50S Y52A R56E: 3.82 (1 of 3 replicates; controls 1 of 9)
* Y52D A101N: 4.64 (1 of 3 replicates; controls 1 of 9)
* I51R Y52D: nd (0 of 3 replicates; controls 1 of 9)
* L29I Y52E: 5.06 (1 of 3 replicates; controls 1 of 9)

For reference, 5 entries of the list once more:

- Y52L D54R Y60D: 3.38 (1 of 3 replicates; controls 2 of 9)
- F27S T28I Y52R: nd (0 of 3 replicates; controls 0 of 9)
- N30R Y52F: 2.07 (3 of 3 replicates; controls 1 of 9)
- Y52P G55V G61F: nd (0 of 3 replicates; controls 0 of 9)
- Y52W D54G A102Y: nd (0 of 3 replicates; controls 0 of 9)